Assays:
[1] = molecular target: Mu-type opioid receptor (Rattus norvegicus, UniProt P33535); test: Antagonist activity on agonist (DAMGO) stimulated [35S]GTP-gamma-S, binding in cloned mu opioid receptors; format: functional
[2] = molecular target: Delta-type opioid receptor (Homo sapiens, UniProt P41143); test: Antagonist activity on agonist (SNC-80) stimulated [35S]GTP-gamma-S, binding in cloned opioid receptor mu1; format: functional

The chains behind the UniProt entries cited, without tags or fusion partners.
UniProt P33535, whole entry: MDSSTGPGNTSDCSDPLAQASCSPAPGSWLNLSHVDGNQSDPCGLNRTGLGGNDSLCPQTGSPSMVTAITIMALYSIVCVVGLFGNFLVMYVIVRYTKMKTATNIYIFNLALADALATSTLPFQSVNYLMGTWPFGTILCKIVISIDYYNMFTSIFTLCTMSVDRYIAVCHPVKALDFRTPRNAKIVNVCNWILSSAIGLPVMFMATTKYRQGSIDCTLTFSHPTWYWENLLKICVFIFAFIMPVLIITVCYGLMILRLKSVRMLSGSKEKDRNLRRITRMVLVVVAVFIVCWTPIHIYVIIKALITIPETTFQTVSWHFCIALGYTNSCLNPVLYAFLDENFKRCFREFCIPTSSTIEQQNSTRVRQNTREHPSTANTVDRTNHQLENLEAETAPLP
UniProt P41143, whole entry: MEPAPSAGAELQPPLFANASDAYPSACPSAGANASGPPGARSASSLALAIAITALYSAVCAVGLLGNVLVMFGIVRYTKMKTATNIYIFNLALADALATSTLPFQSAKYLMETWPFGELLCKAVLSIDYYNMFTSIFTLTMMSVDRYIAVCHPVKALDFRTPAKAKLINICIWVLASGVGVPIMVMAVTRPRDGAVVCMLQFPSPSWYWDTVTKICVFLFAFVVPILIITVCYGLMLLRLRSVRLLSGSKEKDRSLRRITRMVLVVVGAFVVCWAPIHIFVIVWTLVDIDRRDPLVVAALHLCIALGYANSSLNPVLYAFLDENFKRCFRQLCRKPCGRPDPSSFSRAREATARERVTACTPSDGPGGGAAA

Oc1ccc2c3c1O[C@H]1c4[nH]c5c(c4C[C@@]4(O)[C@@H](C2)N(CC2CC2)CC[C@]314)C[C@@]1(O)[C@H]2Cc3ccc(O)c4c3[C@@]1(CCN2CC1CC1)[C@H]5O4 [NORBINALTORPHIMINE]
Ki [1]: 0.0158 µM

CC(C)[C@@H](CN1CC[C@@](C)(c2cccc(O)c2)[C@@H](C)C1)NC(=O)C1Cc2ccc(O)cc2CN1 (some centres not stated)
Ki [2]: > 0.1 µM

Source: ChEMBL document CHEMBL1134559 (J Med Chem, 2001)
